This experiment has as its system human skin. Nature of the experiment: Skin tanning with oral Rifampin plus sun/UVR exposure (patient, volunteers, tanning booth users). The following applies: patient taking Rifampin, sunbathed 2-3 hours a day for 3 days.

Turning to `CO[C@H]1/C=C/O[C@@]2(C)Oc3c(C)c(O)c4c(O)c(c(/C=N/N5CCN(C)CC5)c(O)c4c3C2=O)NC(=O)/C(C)=C\C=C\[C@H](C)[C@H](O)[C@@H](C)[C@@H](O)[C@@H](C)[C@H](OC(C)=O)[C@@H]1C` [Rifampin], the “duration of tan without fading” value is recorded as above 4 months; the “tan of extremities, chest and abdomen” value was “tanned bronze brown”.

Values taken from patent publication US20110020252A1, “METHOD OF LONG LASTING HUMAN SKIN TANNING” (priority 2010, published 2011).
